Source: paper PMC9921063 (Molecules, 2023)

Protein sequences, listed by entry. Tags and fused reporters are not part of them. Residues count along the entry.
UniProt O42275, 24-633: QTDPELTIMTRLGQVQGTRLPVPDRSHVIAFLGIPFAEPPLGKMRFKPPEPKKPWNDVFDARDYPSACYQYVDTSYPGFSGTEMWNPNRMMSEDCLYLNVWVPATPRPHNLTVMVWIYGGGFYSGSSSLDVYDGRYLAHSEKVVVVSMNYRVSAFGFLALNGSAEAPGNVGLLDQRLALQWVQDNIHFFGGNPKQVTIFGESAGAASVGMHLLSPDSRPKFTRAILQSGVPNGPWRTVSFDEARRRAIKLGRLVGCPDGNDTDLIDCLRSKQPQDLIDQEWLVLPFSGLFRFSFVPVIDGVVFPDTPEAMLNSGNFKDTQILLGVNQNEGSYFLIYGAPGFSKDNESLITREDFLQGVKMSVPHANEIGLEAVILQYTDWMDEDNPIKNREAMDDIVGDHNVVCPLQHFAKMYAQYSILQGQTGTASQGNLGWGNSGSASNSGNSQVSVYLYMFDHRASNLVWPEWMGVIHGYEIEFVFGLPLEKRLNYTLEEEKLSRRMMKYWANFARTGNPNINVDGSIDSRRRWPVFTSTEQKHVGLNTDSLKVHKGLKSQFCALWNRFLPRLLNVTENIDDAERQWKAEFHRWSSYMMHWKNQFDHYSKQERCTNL

What follows are substances tested against electric eel AChE (Electrophorus electricus, UniProt O42275). Conditions: mean ± S.D.
Assay type: biochemical
Description: According to the Ellman et al. published spectrophotometric method of electric eel AChE [47], AChEI activity was measured. Acetylthiocholine iodide (ATCI) was used as the reaction’s substrate, and the antiacetylcholinesterase activity was measured using 5,5’-Dithiobis-(2-nitrobenzoic acid) (DTNB).

| Substance | AChEI IC50 [µM mL^−1] |
| --- | --- |
| 5,6-Dimethyl-[1,3-(2,3,4,5,6-pentamethyl-2,4,6-trimethyl)-benzimidazol-2-ylidene](p-cymene) ruthenium(II) chloride [Compound 3b] | 2.52 ± 3.4 |
| 5,6-Dimethyl-[1,3-(2,3,4,5,6-pentamethyl-2,4,6-trimethyl)-benzimidazol-2-ylidene](p-cymene) ruthenium(II) chloride [Compound 3a] | 15.05 ± 2.2 |
| 5,6-Dimethyl-[1,3-(4-(tert-butyl)-4-methyl)-benzimidazol-2-ylidene] (p-cymene) ruthenium (II) chloride [Compound 3c] | 11.95 ± 1.6 |
| 5,6-Dimethyl-[1,3-(3,5)dimethyl-4-methyl)-benzimidazol-2-ylidene](p-cymene) ruthenium(II) chloride [Compound 3d] | 5.06 ± 0.8 |
